{"source": "patent US20260382587A1", "about": "“DYCLONINE FOR USE IN THE TOPICAL TREATMENT OF HAND-FOOT SYNDROME” (published 2026)", "key": {"[1]": {"system": "cancer and multiple myeloma cells", "conditions": "in combination with proteasome inhibitors; cited from earlier work"}, "[2]": {"assay": "topical treatment of patients suffering from palmo-plantar erythrodysesthesia (hand-foot syndrome), Examples 1-6", "from_the_text": "In the present invention, the term “hand-foot syndrome” (also called “palmo-plantar erythrodysesthesia”) refers to a skin reaction on the palms of the hands and/or the soles of the feet as a result of certain cancer treatments. Grading of hand-foot syndrome according to the CTCAE (Common Terminology Criteria for Adverse Events) is as follows:\nA patient suffered from a metastatic pancreatic cancer. They developed a severe and painful palmo-plantar erythrodysesthesia under FOLFIRINOX therapy with painful onycholysis with oozing, paronychia, skin desquamation and neuropathic pain.\n(§1) They were treated with a cream of dyclonine 4% applied locally twice a day.\nA patient suffered from pancreatic cancer. They developed a severe and painful palmo-plantar erythrodysesthesia under FOLFIRINOX therapy with painful nail detachment, hyperkeratosis, skin desquamation, neuropathic pain.\nas §1\nA patient suffered from breast cancer. They developed a painful palmo-plantar erythrodysesthesia under taxane therapy with painful onycholysis (hands and feet), hyperkeratosis and neuropathic pain.\nA patient suffered from colon cancer. They developed a painful palmo-plantar erythrodysesthesia under capecitabine therapy with painful onycholysis (hands and feet), hyperkeratosis and neuropathic pain.\n(§2) A patient suffered from breast cancer. They developed a painful palmo-plantar erythrodysesthesia under xeloda (capecitabine) therapy.\nThey were treated with a cream of dyclonine 6% applied locally twice a day.\nas §2"}, "sodium channel": {"system": "sodium channel", "conditions": "role: inhibitor; topical anesthesia to mucous membranes; cited from earlier work"}, "[3]": {"conditions": "Example 1, cream of dyclonine 4%, applied locally twice a day, metastatic pancreatic cancer, FOLFIRINOX, after 1 month of use"}, "[4]": {"conditions": "Example 2, cream of dyclonine 4%, applied locally twice a day, pancreatic cancer, FOLFIRINOX, after 3 weeks of use"}, "[5]": {"conditions": "Example 3, cream of dyclonine 4%, applied locally twice a day, breast cancer, taxane therapy, after 3 weeks of use"}, "[6]": {"conditions": "Example 4, cream of dyclonine 4%, applied locally twice a day, colon cancer, capecitabine, after 1 month of use"}, "[7]": {"conditions": "Example 5, cream of dyclonine 6%, applied locally twice a day, breast cancer, xeloda (capecitabine), after 1 month of use"}, "[8]": {"conditions": "Example 6, cream of dyclonine 4%, applied locally twice a day, breast cancer, xeloda (capecitabine), after 3 months of use"}}}
{"smiles": "CCCCOc1ccc(C(=O)CCN2CCCCC2)cc1", "values": [{"measurement": "cytotoxic effect of proteasome inhibitors", "setting": "[1]", "result": "enhances the cytotoxic effect"}, {"measurement": "improvement of the patient", "setting": "[2]; [3]", "result": "improvement"}, {"measurement": "oozing lesions under the nails", "setting": "[2]; [3]", "result": "drying"}, {"measurement": "pain", "setting": "[2]; [3]", "result": "almost complete disappearance"}, {"measurement": "paronychia", "setting": "[2]; [3]", "result": "great improvement"}, {"measurement": "hyperkeratosis", "setting": "[2]; [4]", "result": "disappearance"}, {"measurement": "improvement of the patient", "setting": "[2]; [4]", "result": "improvement"}, {"measurement": "neuropathic pain", "setting": "[2]; [4]", "result": "improvement"}, {"measurement": "skin desquamation", "setting": "[2]; [4]", "result": "improvement"}, {"measurement": "hyperkeratosis", "setting": "[2]; [5]", "result": "almost complete disappearance"}, {"measurement": "improvement of the patient", "setting": "[2]; [5]", "result": "improvement"}, {"measurement": "neuropathic pain", "setting": "[2]; [5]", "result": "improvement"}, {"measurement": "skin desquamation", "setting": "[2]; [5]", "result": "improvement"}, {"measurement": "hyperkeratosis", "setting": "[2]; [6]", "result": "almost complete relief"}, {"measurement": "improvement of the patient", "setting": "[2]; [6]", "result": "improvement"}, {"measurement": "neuropathic pain", "setting": "[2]; [6]", "result": "almost complete relief"}, {"measurement": "hyperkeratosis", "setting": "[2]; [7]", "result": "almost complete disappearance"}, {"measurement": "improvement of the patient", "setting": "[2]; [7]", "result": "improvement"}, {"measurement": "neuropathic pain", "setting": "[2]; [7]", "result": "improvement"}, {"measurement": "skin desquamation", "setting": "[2]; [7]", "result": "improvement"}, {"measurement": "hyperkeratosis", "setting": "[2]; [8]", "result": "almost complete disappearance"}, {"measurement": "improvement of the patient", "setting": "[2]; [8]", "result": "improvement"}, {"measurement": "neuropathic pain", "setting": "[2]; [8]", "result": "improvement"}, {"measurement": "skin desquamation", "setting": "[2]; [8]", "result": "improvement"}, {"measurement": "pain and damages of the skin, in particular hyperkeratosis", "setting": "[2]; general statement, topical administration, patients suffering from hand-foot syndrome", "result": "reduces the pain and the damages of the skin"}, {"measurement": "sodium channel inhibition", "setting": "sodium channel", "result": "sodium channel inhibition"}]}
